US20220363689A1, “INHIBITOR OF BTK AND MUTANTS THEREOF” (Newave Pharmaceutical Inc., priority 2019, published 2022)

Amino acid sequences for entries named in this document (tags omitted). A change or cut given only in a name is not applied to a line headed by its entry.
UniProt Q06187, whole entry: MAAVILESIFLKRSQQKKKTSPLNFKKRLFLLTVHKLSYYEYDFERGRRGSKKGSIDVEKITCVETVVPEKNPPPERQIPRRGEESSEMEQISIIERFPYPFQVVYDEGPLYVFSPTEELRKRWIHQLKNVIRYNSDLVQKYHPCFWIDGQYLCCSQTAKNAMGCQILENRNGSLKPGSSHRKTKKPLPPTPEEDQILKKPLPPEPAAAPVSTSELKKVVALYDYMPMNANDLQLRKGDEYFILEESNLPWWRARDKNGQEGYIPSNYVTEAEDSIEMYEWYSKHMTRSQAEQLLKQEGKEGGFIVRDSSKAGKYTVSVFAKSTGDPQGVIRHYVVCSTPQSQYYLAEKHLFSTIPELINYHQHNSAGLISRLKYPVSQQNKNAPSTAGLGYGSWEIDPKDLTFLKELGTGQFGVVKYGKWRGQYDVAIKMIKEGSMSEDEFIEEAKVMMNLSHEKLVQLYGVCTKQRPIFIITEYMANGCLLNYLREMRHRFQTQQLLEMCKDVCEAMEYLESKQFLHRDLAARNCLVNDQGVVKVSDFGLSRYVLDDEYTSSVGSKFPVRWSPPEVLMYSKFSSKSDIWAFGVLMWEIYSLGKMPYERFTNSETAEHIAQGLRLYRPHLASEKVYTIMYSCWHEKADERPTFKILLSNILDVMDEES
UniProt Q06187, whole entry C481S: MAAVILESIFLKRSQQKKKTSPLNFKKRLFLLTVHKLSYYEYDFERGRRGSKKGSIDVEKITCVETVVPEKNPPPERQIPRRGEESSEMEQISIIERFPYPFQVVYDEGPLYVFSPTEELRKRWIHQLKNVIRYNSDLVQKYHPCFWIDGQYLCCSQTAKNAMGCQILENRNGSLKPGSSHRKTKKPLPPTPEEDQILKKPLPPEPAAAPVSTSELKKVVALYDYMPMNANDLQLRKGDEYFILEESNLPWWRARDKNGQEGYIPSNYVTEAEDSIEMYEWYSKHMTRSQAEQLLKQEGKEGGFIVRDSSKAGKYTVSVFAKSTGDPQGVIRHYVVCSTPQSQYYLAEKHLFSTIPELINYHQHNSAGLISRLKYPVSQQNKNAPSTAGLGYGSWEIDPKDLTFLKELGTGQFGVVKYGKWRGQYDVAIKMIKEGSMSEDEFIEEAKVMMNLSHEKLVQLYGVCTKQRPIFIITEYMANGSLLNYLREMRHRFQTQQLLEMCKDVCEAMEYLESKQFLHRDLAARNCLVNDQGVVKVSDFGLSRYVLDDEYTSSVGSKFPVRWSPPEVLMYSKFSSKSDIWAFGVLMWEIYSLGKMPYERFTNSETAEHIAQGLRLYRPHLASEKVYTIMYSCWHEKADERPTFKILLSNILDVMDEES

Key:
Type in all cases: biochemical
WT BTK [1] = molecular target: T1, WT BTK (Homo sapiens, UniProt Q06187); assay: Caliper-based kinase assay, WT BTK; conditions: read-out: WT BTK IC50 (nM) (irreversible inhibition); 0.5 nM enzyme, ATP 16 μM, room temperature 3 h
C481S Btk = C481S Btk (Homo sapiens, UniProt Q06187, C481S); assay: Caliper-based kinase assay, C481S BTK; conditions: read-out: C481S BTK IC50 (nM) (reversible inhibition); 0.5 nM enzyme, ATP 16 μM, room temperature 3 h
WT BTK [2] = molecular target: T1, WT BTK; assay: In vitro dialysis assay (irreversibility assay), WT BTK; conditions: reversible or irreversible/covalent inhibition after 24 h dialysis

IC50 (WT BTK [1])	IC50 (C481S Btk)	Conclusion (WT BTK) (WT BTK [2])	Compound
0.065 nM	0.6 nM	Irreversible/covalent inhibition	C=CC(=O)Nc1cc(Nc2nc(-c3ccnc(N4CCn5c(cc6c5CC(C)(C)C6)C4=O)c3CO)cn(C)c2=O)ccc1N1CCC(N2CCN(C)CC2)C[C@@H]1C (stereo partly drawn)
0.042 nM	0.35 nM	Irreversible/covalent inhibition	C=CC(=O)Nc1cc(Nc2nc(-c3ccnc(N4CCn5c(cc6c5CC(C)(C)C6)C4=O)c3CO)cn(C)c2=O)ccc1N1CCN(C2CCO[C@H](C)C2)C[C@@H]1C (stereo partly drawn)
0.068 nM	0.22 nM	Irreversible/covalent inhibition	C=CC(=O)Nc1cc(Nc2nc(-c3ccnc(N4CCn5c(cc6c5CC(C)(C)C6)C4=O)c3CO)cn(C)c2=O)ccc1N1CCN(C2C[C@@H](C)O[C@@H](C)C2)C[C@@H]1C (stereo partly drawn)
